# This is a selection; strong and weak results do not stand in their true shares. Calls of active or inactive are those of the source.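 How the source made its calls: active means fluorescence response below 15%; inactive means the rest.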
# Assay: DHE quenching or ROS scavenging interference in aged yeast, artefact control for yeast caloric restriction mimetic project, S. cerevisiae BY4741, flow cytometry (AID 435000);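 further: percent of the mean fluorescence averaged over all compound wells on the plate; lower means stronger quenching of DHE signal or ROS scavenging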
# Details: at 10 µM, active compounds read low
compound,measurement,value
O=C(OC1CN2CCC1CC2)c1ccccc1 (stereo unspecified),fluorescence response,inactive: 96.6%

# — PubChem BioAssay AID435000 (NMMLSC, 2010)
